The list shows a part of the results, in another mix than the full data. Some results for these compounds are left out of this collection, so the calls shown say nothing about other tests. Records with an inconclusive call do not appear. Calls of active or inactive are those of the source. Calls follow the shape of the dose curve; as a rule, active = well fitted inhibition curve with a large enough effect; inconclusive = small, poorly fitted or top-dose-only effect, or another doubt; inactive = no such curve, though single readings can be large or run the other way.

The target in the experiment is 4'-phosphopantetheinyl transferase ffp (Bacillus subtilis) (UniProt Q9F4F7). Briefly: qHTS Assay for Inhibitors of Bacillus subtilis Sfp phosphopantetheinyl transferase (PPTase).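 Also: the enzyme is Sfp with the accession as filed and its product quenches rhodamine fluorescence; 0% = enzyme reaction without inhibitor and -100% = no enzyme wells.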 Conditions: Biochemical Sfp PPTase activity.
On to `C=CCN1CCN(CCOC(=O)C(O)(c2ccccc2)c2ccccc2)CC1`, for which the largest response in the series, negative = inhibition was inactive: 9.48%.
`CC(C)N1C(=O)CC2(CCN(CCOC(=O)C(O)(c3ccccc3)c3ccccc3)CC2)C1=O`: the largest response in the series, negative = inhibition was inactive: -3.46%.

The values above are taken from PubChem BioAssay AID1490 (National Center for Advancing Translational Sciences (NCATS), 2009).
